Data from patent publication US20060079453A1, “Hla binding peptides and their uses” (priority 2002, published 2006).
pIC50: −log10 of the molar value. Read-outs that look alike come from different tables or passages of the source.

The chains behind the UniProt entries cited, without tags or fusion partners. Residues count along the entry.
UniProt P01889, 25-362: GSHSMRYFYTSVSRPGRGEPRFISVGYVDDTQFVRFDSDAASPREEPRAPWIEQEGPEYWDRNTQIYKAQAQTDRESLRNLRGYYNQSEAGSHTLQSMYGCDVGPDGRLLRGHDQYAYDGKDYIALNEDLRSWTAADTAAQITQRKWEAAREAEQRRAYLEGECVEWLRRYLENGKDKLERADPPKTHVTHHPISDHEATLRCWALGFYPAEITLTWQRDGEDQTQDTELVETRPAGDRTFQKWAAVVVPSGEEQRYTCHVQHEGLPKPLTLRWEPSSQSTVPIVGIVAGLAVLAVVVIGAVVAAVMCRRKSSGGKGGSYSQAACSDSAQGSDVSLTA

Columns and labels:
HLA-A*0202 = HLA-A*0202 (Homo sapiens, UniProt P04439, D140Y/D185E/D98H/E176V/E277Q/G131W/G231S/I119L/I121R/I166T/I218V/L180W/L300P/L318F/N151K/N90K/P208A/P217A/Q67R/Q86G/Q94H/R138H/R169H/T345S); assay: biochemical; assay type: binding
HLA-A*0206 = HLA-A*0206 (Homo sapiens, UniProt P04439, D140Y/D185E/D98H/E176V/E277Q/F33Y/G131W/G231S/I119V/I121R/I166T/I218V/L300P/L318F/N151K/N90K/P208A/P217A/Q86G/Q94H/R138H/R169H/T345S); assay: biochemical; assay type: binding
HLA-A*6802 = HLA-A*6802 (Homo sapiens, UniProt P04439, A269V/D140Y/D185E/E176V/E277Q/E87N/F33Y/G231S/I121R/I166T/I218V/L180W/L300P/L318F/N151K/P208A/P217A/Q86R/R138H/R169H/S129P/T345S/V36M); assay: biochemical; assay type: binding; settings: A*6802 binding affinity (expressed as an IC50)
HLA-B*0702 = HLA-B*0702 (Homo sapiens, UniProt P01889); assay: biochemical; settings: B*0702 binding affinity (IC50)
HLA-A*0201 = HLA-A*0201 (Homo sapiens, UniProt P04439, D140Y/D185E/D98H/E176V/E277Q/G131W/G231S/I119V/I121R/I166T/I218V/L300P/L318F/N151K/N90K/P208A/P217A/Q86G/Q94H/R138H/R169H/T345S); assay: biochemical; assay type: binding
HLA-A*0203 = HLA-A*0203 (Homo sapiens, UniProt P04439, A173T/D140Y/D185E/D98H/E277Q/G131W/G231S/I119V/I121R/I166T/I218V/L180W/L300P/L318F/N151K/N90K/P208A/P217A/Q86G/Q94H/R138H/R169H/T345S); assay: biochemical; assay type: binding
HLA-DR DRB1*0802 (DR8) = HLA-DR DRB1*0802 (DR8) (Homo sapiens, UniProt P01903+P01911, A100R/A103L/A169T/F76Y/H45Y/I96F/K41T/L162R/M171V/P40S/Q125H/Q178H/Q39Y/Q99D/R218S/R42G/S66Y/V115G/W38E); assay: biochemical; assay type: binding
[1] = biological target: HLA-DQ DQA1*0301/B*0301 (DQ7) (Homo sapiens, UniProt P01909+P01920, A209T/C70Q/DUP78-78/E183D/F237L/G63E/I129T/K197E/L178F/L74F/L98V/Q57E/Q76R/S185I/S97I/T49S/V73L); assay: biochemical; assay type: binding
[2] = biological target: HLA-DQ DQA1*0501/B*0201 (DQ2) (Homo sapiens, UniProt P01909+P01920, A45G/A70V/D89A/E106A/E77G/E98D/H199R/L107V/N214S/P84L/P87L/T103K/T109R/T172A/T60S/V78E/V99I/Y58L/Y62S/Y69I/Y79F); assay: biochemical
[3] = biological target: HLA-DQ DQA1*0301/B*0302 (DQ8) (Homo sapiens, UniProt P01909+P01920, A209T/A45G/C70Q/D89A/DUP78-78/E183D/E77G/F237L/G63E/H199R/I129T/K197E/L178F/L74F/L98V/Q57E/Q76R/S185I/S97I/T217I/T49S/V73L/Y58L); assay: biochemical
HLA-A*0101 = HLA-A*0101 (Homo sapiens, UniProt P04439, A114D/A174V/A182V/D101N/D185E/E176A/E190D/L180R/Q94H/R68K/S129P/T187R/V100A/V91M/W191G); assay: biochemical; settings: Binding affinity to A*0101 (expressed as an IC50)
HLA-A*2301 = HLA-A*2301 (Homo sapiens, UniProt P04439, D101N/D140Y/D185E/E176V/E190D/F33S/G103R/G107R/H175R/I119L/I121M/I306V/K168Q/K335N/L105A/L300P/N151K/N90K/P307H/Q86E/Q94H/R106L/R138H/R89G/T104I/T345S/V100E/W191G/Y123F); assay: biochemical; assay type: binding
HLA-A*1101 = HLA-A*1101 (Homo sapiens, UniProt P04439, A114D/D185E/E176A/F33Y/L180Q/S129P/T187R); assay: biochemical; assay type: binding
HLA-A*3101 = HLA-A*3101 (Homo sapiens, UniProt P04439, A270S/D185E/E176V/E277Q/F33T/G231S/G80R/H175R/I121M/I218V/I322F/K168Q/L300P/L318F/M331R/P217A/Q94H/R138Q/T323A/T345S/T97I/V358M); assay: biochemical; assay type: binding
HLA-A*3301 = HLA-A*3301 (Homo sapiens, UniProt P04439, A270S/D185E/E176V/E277Q/E87N/F33T/G231S/H175R/I121M/I218V/I322F/K168Q/K210R/L300P/L318F/M331R/P217A/Q86R/Q94H/R138Q/T323A/T345S/T97I/V358M/Y195H); assay: biochemical; assay type: binding
HLA-A*6801 = HLA-A*6801 (Homo sapiens, UniProt P04439, A269V/D185E/E176V/E277Q/E87N/F33Y/G231S/I121M/I166T/I218V/L180W/L300P/L318F/N151K/P208A/P217A/Q86R/R169H/T345S); assay: biochemical; assay type: binding
HLA-A*2402 = HLA-A*2402 (Homo sapiens, UniProt P04439, D101N/D140Y/D185E/E176V/E190D/F33S/G103R/G107R/I119L/I121M/I306V/K335N/L105A/L180Q/L300P/N151K/N90K/Q86E/Q94H/R106L/R138H/R89G/T104I/T345S/V100E/W191G/Y123F); assay: MHC molecular binding / Capture assay, IC50: A*2402; settings: read-out: A*2402 binding affinity (IC50)
HLA-A*2902 = HLA-A*2902 (Homo sapiens, UniProt P04439, A270S/D101N/D185E/E176V/E277Q/E87Q/F33T/G231S/H175R/I121M/I218V/I322F/K168Q/L300P/L318F/M331R/P208A/P217A/Q86L/T323A/T345S/V100A/V358M); assay: MHC molecular binding / Capture assay, IC50: A*2902; settings: read-out: A*2902 binding affinity (IC50)
HLA-A*3002 = HLA-A*3002 (Homo sapiens, UniProt P04439, D101N/D140H/D185E/E176R/F33S/G80R/H175R/K168Q/Q94H/R138E/R41S/V100E); assay type: binding; settings: read-out: A*3002 binding affinity (IC50)
[4] = A*0202 binding affinity (expressed as an IC50)
[5] = A*0206 binding affinity (expressed as an IC50)
[6] = A*0201 binding affinity (expressed as an IC50)
[7] = A*0203 binding affinity (expressed as an IC50)

Question: CC(C)C[C@H](NC(=O)[C@@H](NC(=O)[C@@H]1CCCN1C(=O)[C@H](Cc1ccccc1)NC(=O)[C@H](Cc1ccccc1)NC(=O)CNC(=O)[C@H](Cc1c[nH]c2ccccc12)NC(=O)[C@H](CC(C)C)NC(=O)[C@H](C)N)C(C)C)C(=O)O was tested. Which pIC50 (HLA-A*0202; [4]) did it give?
Answer: 9.13

Question: What about the pIC50 (HLA-A*0206; [5]) of the same compound?
Answer: 7.82

Question: And the pIC50 (HLA-A*6802)?
Answer: 5.82

Question: C[C@H](N)C(=O)N1CCC[C@H]1C(=O)NCC(=O)N1CCC[C@H]1C(=O)NCC(=O)N1CCC[C@H]1C(=O)NCC(=O)N[C@@H](C)C(=O)N[C@@H](C)C(=O)N1CCC[C@H]1C(=O)N[C@@H](C)C(=O)O was tested. Which pIC50 (HLA-B*0702) did it give?
Answer: 5.95

Question: Which results are given for CC[C@H](C)[C@H](NC(=O)[C@H](CS)NC(=O)[C@H](CC(C)C)NC(=O)[C@@H]1CCCN1C(=O)[C@@H](NC(=O)[C@H](CC(C)C)NC(=O)[C@@H](N)CCCCN)[C@@H](C)O)C(=O)N[C@H](C(=O)N[C@@H](CC(C)C)C(=O)O)[C@@H](C)O?
Answer: pIC50 (HLA-A*0201; [6]): 8.77; pIC50 (HLA-A*0203; [7]): 7.64; pIC50 (HLA-A*0206; [5]): 8.77; pIC50 (HLA-A*6802): 5.04

Question: What does the source list for CC(C)C[C@H](NC(=O)[C@H](CCCCN)NC(=O)[C@H](Cc1ccccc1)NC(=O)[C@H](CS)NC(=O)[C@H](Cc1c[nH]c2ccccc12)NC(=O)CNC(=O)[C@H](Cc1ccccc1)NC(=O)[C@H](CC(C)C)NC(=O)[C@@H](N)CC(C)C)C(=O)O?
Answer: pIC50 (HLA-A*0201): 7.74; pIC50 (HLA-A*0202): 8.39; pIC50 (HLA-A*0203): 6.70; pIC50 (HLA-A*0206): 6.47

Question: CSCC[C@H](N)C(=O)N[C@@H](CC(C)C)C(=O)N[C@@H](CC(C)C)C(=O)N[C@@H](CCCNC(=N)N)C(=O)N[C@@H](CC(C)C)C(=O)N[C@@H](CO)C(=O)N[C@@H](CCC(=O)O)C(=O)N1CCC[C@H]1C(=O)N[C@H](C(=O)O)C(C)C was tested. Which pIC50 (HLA-A*0201; [6]) did it give?
Answer: 7.33

Question: What about the pIC50 (HLA-A*0202; [4]) of the same compound?
Answer: 7.54

Question: What about the pIC50 (HLA-A*0203; [7]) of the same compound?
Answer: 7.32

Question: And the pIC50 (HLA-A*0206; [5])?
Answer: 6.16

Question: And the pIC50 (HLA-A*6802)?
Answer: 6.36

Question: CC[C@H](C)[C@H](NC(=O)[C@@H](NC(=O)[C@H](CCCNC(=N)N)NC(=O)[C@H](CC(C)C)NC(=O)[C@@H]1CCCN1C(=O)[C@H](C)NC(=O)[C@H](C)NC(=O)[C@H](CO)NC(=O)[C@H](C)NC(=O)[C@H](C)NC(=O)[C@H](CC(=O)O)NC(=O)[C@@H]1CCCN1C(=O)[C@@H]1CCCN1)[C@@H](C)O)C(=O)N[C@H](C(=O)N[C@@H](C)C(=O)O)[C@@H](C)O was tested. Which pIC50 (HLA-DR DRB1*0802 (DR8)) did it give?
Answer: < 4.20

Question: And the pIC50 [1]?
Answer: 7.70

Question: And the pIC50 [2]?
Answer: 5.44

Question: And the pIC50 [3]?
Answer: 5.41

Question: With CC(C)C[C@H](NC(=O)[C@H](CC(N)=O)NC(=O)[C@@H]1CCCN1C(=O)[C@H](CC(=O)O)NC(=O)[C@@H](NC(=O)[C@@H]1CCCN1)C(C)C)C(=O)N[C@@H](CCC(=O)O)C(=O)N1CCC[C@H]1C(=O)N[C@@H](Cc1ccc(O)cc1)C(=O)O as the compound, how does the pIC50 (HLA-A*0101) read?
Answer: 6.71

Question: CC[C@H](C)[C@H](NC(=O)[C@H](CCCCN)NC(=O)[C@H](CO)NC(=O)[C@H](CC(C)C)NC(=O)[C@H](Cc1ccccc1)NC(=O)[C@@H](N)CCCNC(=N)N)C(=O)N[C@@H](CO)C(=O)N[C@@H](CCC(=O)O)C(=O)N[C@@H](Cc1ccc(O)cc1)C(=O)O was tested. Which pIC50 (HLA-A*2301) did it give?
Answer: 6.92

Question: And the pIC50 (HLA-A*0101)?
Answer: < 4.39

Question: CC(C)C[C@H](NC(=O)[C@H](CO)NC(=O)[C@@H]1CCCN1C(=O)[C@H](C)NC(=O)[C@H](CO)NC(=O)[C@H](CC(C)C)NC(=O)[C@H](CCC(N)=O)NC(=O)[C@@H](N)CO)C(=O)N[C@@H](CCCCN)C(=O)O was tested. Which pIC50 (HLA-A*1101) did it give?
Answer: 7.60

Question: What about the pIC50 (HLA-A*3101) of the same compound?
Answer: 5.89

Question: What about the pIC50 (HLA-A*3301) of the same compound?
Answer: < 3.91

Question: And the pIC50 (HLA-A*6801)?
Answer: 5.42

Question: How did the pIC50 (HLA-A*0206; [5]) turn out when CC(C)C[C@H](NC(=O)[C@@H](NC(=O)CNC(=O)[C@@H]1CCCN1C(=O)CNC(=O)[C@@H]1CCCN1C(=O)CNC(=O)[C@H](CCCCN)NC(=O)[C@H](C)NC(=O)[C@H](CC(C)C)NC(=O)[C@@H](N)C(C)C)[C@@H](C)O)C(=O)O was run?
Answer: 4.94

Question: How did the pIC50 (HLA-A*2402) turn out when PYAVCRVCLLF was run?
Answer: 6.65

Question: RFHNIIRGRW was tested. Which pIC50 (HLA-A*2902) did it give?
Answer: 7.74

Question: What about the pIC50 (HLA-A*3002) of the same compound?
Answer: 7.24

Question: What about the pIC50 (HLA-A*2402) of the same compound?
Answer: 4.27
